Test results published in patent publication US20220073536A1 (Rigel Pharmaceuticals, Inc., priority 2003, published 2022).
Like-named read-outs stand apart in the source and are kept apart here.

Legend:
Syk kinase = Syk kinase (Homo sapiens, UniProt P43405); test: Syk kinase biochemical fluorescence polarization assay; details: read-out: fp_syk, 11 pt, isolated Syk kinase
[1] = test system: cultured human mast cells (CHMC); test: CHMC low cell density IgE activation: tryptase assay; type: cell-based

Measured: IC50

COC(=O)CNC(=O)c1ccc(Nc2nc(Nc3ccc(OC)c(Cl)c3)ncc2F)cc1
< 10 µM: Syk kinase | [1]; read-out: LD Tryptase, CHMC, IgE, 3 pt | [1]; read-out: LD Tryptase, CHMC, IgE, 8 pt
